Test system: human embryonic lung fibroblast (HELF) cell cultures
Assay: Anti-cellular (toxic and cytostatic) effect on HELF cells in the same screening test
Format: cell-based
Settings: 6 days at 37° C.

| SMILES | CIC50 (μM) (HELF) = highest concentration at which no obvious anticellular effect is evident [µM] |
| --- | --- |
| Cc1ccc(S(=O)(=O)N=C(N)NCCC[C@H](NC(=O)OCc2c(Cl)cccc2Cl)C(=O)N[C@H](C(=O)NC(C=O)Cc2ccccc2)C(C)C)cc1 (some centres unmarked) | 0.52 |
| Cc1ccc(S(=O)(=O)N=C(N)NCCC[C@H](NC(=O)COc2ccc(F)cc2F)C(=O)N[C@H](C(=O)NC(C=O)Cc2ccccc2)C(C)C)cc1 (some centres unmarked) | 4.38 |

From US5633231A, “Valine-containing pseudopeptides with antiviral activity” (Bayer Aktiengesellschaft, priority 1993, dated 1997)
